# Laboratory results published in patent publication US12029736B2, “Camptothecin derivatives and conjugates thereof” (priority 2020, dated 2024).
# Experiments:
# NCI-N87 tumor cells = experiment: In vivo efficacy of the ADCs in NCI-N87 CDX model; design: species or system mouse; conditions: single i.v.; for Regressions Complete / Regressions Partial: 8 mice per group
# Method: Each mouse (female Balb/c-Nude from Vital Rivers) was inoculated subcutaneously at the right flank with NCI-N87 tumor cells (5×10^6) mixed with Matrigel (50:50) in 0.2 mL of PBS for tumor development. The animals were randomly grouped on day 6 after tumor inoculation, when the average tumor volume reached around 160 mm^3, then treatment started for the efficacy study. Each group contained 8 mice. The test and control articles were administered to the tumor-bearing mice via tail vein at a volume of 5 mL/kg.
# Tumor size was measured twice a week in two dimensions using a caliper, and the volume was expressed in mm^3 using the formula: V=0.5 a×b^2 where a and b were the long and short dimensions of the tumor, respectively. Results were represented by mean and the standard error (Mean±SEM).
# Statistical analysis: Two-way ANOVA was performed to compare tumor volume between two groups. All data were analyzed using Graphpad Prism 6.0 and P<0.05 was considered to be statistically significant. Both statistical analysis and biological observations were taken into consideration.
# Tumor growth inhibition: The tumor size was used for calculations of T/C values. T/C (%) of relative tumor proliferation rate was calculated using the formula: T/C (%)=(Ti/T0)/(Vi/V0)×100%. […] Ti refer to the mean tumor volume of treatment group measured at each indicated time point following treatment; T0 refer to the tumor volume of treatment group when grouping; Vi refer to the mean tumor volume of vehicle control group measured at each indicated time point following treatment; V0 refer to the tumor volume of vehicle control group when grouping. If T/C>40%, there is no efficacy; if T/C=<40%, and p value<0.05, there is tumor inhibition.
# JIMT-1 tumor cells = experiment: In vivo efficacy of the ADCs in JIMT-1 CDX model; design: species or system mouse; conditions: single i.v.; for Regressions Complete / Regressions Partial: 8 mice per group
# MDA-MB-468 = experiment: In vitro cytotoxicity assay (CCK-8), MDA-MB-468; format: cell-based, human; conditions: ADCs, Her2 negative cell line, 120 hours, read-out: Cell Lines (IC50, nM) MDA-MB-468
# Method: (§1) In vitro cytotoxicity assay: • Cytotoxic potencies of the compounds are assessed in flat-bottomed 96-well cell culture plates (Corning Costar) using cell counting Kit-8 (CCK-8) assay (Shanghai Life Lab Biotech Co., Ltd.). Briefly, human tumor cells (2,000-10,000 cells/well, depending on the cell line), in the appropriate culture medium are incubated, with the compounds, or with conjugates in the presence or absence of an excess of the corresponding unconjugated antibodies, for 120 hours, at 37° C., 5% CO2.
# (§2) Dispensed 175 μL cell suspension in 96-well plate at 1500 cells per well and incubate for 24 hours in a humidified incubator (37° C., 5% CO2). For antibody blocking, incubate cells (15000 cells/mL) with 2×10^−6 M of trastuzumab (final concentration 1 μM). Added 25 μL various concentrations of compound as a 5× solution into the cell culture medium (Fetal bovine serum, Invitrogen) in the plate and incubated for 120 hours in the incubator. Thawed CCK-8 on the bench top or in a 37° C. water bath, added 10 μL of CCK-8 to each well of the incubated plate (be careful not introducing air bubbles into the wells since they would interfere with the O. D. reading) and then further incubated for 1-4 hours in the incubator. Measured the absorbance at 450 nm using a SpectraMax i3× Microplate Reader and calculated the cell inhibition rate. […]
# JIMT-1 = experiment: In vitro cytotoxicity assay (CCK-8), JIMT-1; format: cell-based, human; conditions: ADCs, moderate level of Her2 expression, 120 hours, read-out: Cell Lines (IC50, nM) JIMT-1
# Method: as §1, §2
substance,measurement,setting,value
Trastuzumab,Comments,NCI-N87 tumor cells; 4 mg/Kg,inactive
same,Regressions Complete,NCI-N87 tumor cells; 4 mg/Kg,0/8
same,Regressions Partial,NCI-N87 tumor cells; 4 mg/Kg,0/8
same,TGI (%) (day 23),NCI-N87 tumor cells; 4 mg/Kg,16.8%
same,Comments,JIMT-1 tumor cells; 10 mg/Kg,inactive
same,Regressions Complete,JIMT-1 tumor cells; 10 mg/Kg,0/8
same,Regressions Partial,JIMT-1 tumor cells; 10 mg/Kg,0/8
same,TGI (%) (day 27),JIMT-1 tumor cells; 10 mg/Kg,22.5%
"DS-8201a: the ADC trastuzumab deruxtecan (DS-8201a, Enhertu), evaluated for comparison",IC50,MDA-MB-468,> 1000 nM
same,IC50,JIMT-1,6500 nM
same,Comments,NCI-N87 tumor cells; 0.25 mg/Kg,inactive
same,Regressions Complete,NCI-N87 tumor cells; 0.25 mg/Kg,0/8
same,Regressions Partial,NCI-N87 tumor cells; 0.25 mg/Kg,0/8
same,TGI (%) (day 23),NCI-N87 tumor cells; 0.25 mg/Kg,24.7%
same,Comments,NCI-N87 tumor cells; 1 mg/Kg,active
same,Regressions Complete,NCI-N87 tumor cells; 1 mg/Kg,0/8
same,Regressions Partial,NCI-N87 tumor cells; 1 mg/Kg,0/8
same,TGI (%) (day 23),NCI-N87 tumor cells; 1 mg/Kg,52.2%
same,Comments,NCI-N87 tumor cells; 4 mg/Kg,highly active
same,Regressions Complete,NCI-N87 tumor cells; 4 mg/Kg,0/8
same,Regressions Partial,NCI-N87 tumor cells; 4 mg/Kg,8/8
same,TGI (%) (day 23),NCI-N87 tumor cells; 4 mg/Kg,97.3%
same,Comments,JIMT-1 tumor cells; 2.5 mg/Kg,active
same,Regressions Complete,JIMT-1 tumor cells; 2.5 mg/Kg,0/8
same,TGI (%) (day 27),JIMT-1 tumor cells; 2.5 mg/Kg,66.3%
same,Comments,JIMT-1 tumor cells; 5 mg/Kg,active
same,Regressions Complete,JIMT-1 tumor cells; 5 mg/Kg,0/8
same,Regressions Partial,JIMT-1 tumor cells; 5 mg/Kg,4/8
same,TGI (%) (day 27),JIMT-1 tumor cells; 5 mg/Kg,78.4%
same,Comments,JIMT-1 tumor cells; 10 mg/Kg,highly active
same,Regressions Complete,JIMT-1 tumor cells; 10 mg/Kg,0/8
same,Regressions Partial,JIMT-1 tumor cells; 10 mg/Kg,7/8
same,TGI (%) (day 27),JIMT-1 tumor cells; 10 mg/Kg,87.5%
